Shown is part of a subset that was picked to be rich in hits.
GIV-Gai inh – inhibitors of GIV GBA-motif binding to rat Galpha-i3; P08753; Galpha-i3/FITC-GIV peptide fluorescence polarization, 90 min; hits give low values; scaled: aluminum fluoride 0%, vehicle 100%; percent of control (FP), % (test concentration not listed); 0.42% of 210,000 active; AID 1224905;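 active = replicate mean at 85% of control or lower, very high polarization wells dropped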;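 also: wells of about 15 µL received 100 nL stock; the first replicate is given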
GIV Gai FP conf – GIV-Galpha-i3 inhibition, FP confirmation | 580 compounds, 38% hits | FITC-GIV peptide binding to Galphai3, fluorescence polarization; active compounds read low | shares compounds with GIV-Gai inh | fluorescence polarization, mP at 100 µM;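 active means inhibition score of 15 or more, meaning 100 minus mean polarization as percent of control over three replicates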;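 further: lower mP means peptide displaced from Galphai3 so more inhibition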
GIV Gai AS conf – GIV-Galpha-i3 inhibition, AlphaScreen confirmation. shares compounds with GIV-Gai inh. AlphaScreen Galphai3-GIV binding, purified proteins, 90 min; active compounds read low. AlphaScreen counts at 100 µM. 580 compounds, 39% hits;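 active means inhibition score at or above a set limit, where the score is 100 minus the three-replicate mean percent of control signal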
* hit, by the source's call.

SMILES | GIV-Gai inh | others
CCOc1cc(C(c2c(C)[nH]n(-c3ccccc3)c2=O)c2c(C)[nH]n(-c3ccccc3)c2=O)ccc1O | 113
CCOc1cc(C(c2c(C)[nH]n(-c3ccccc3)c2=O)c2c(C)[nH]n(-c3ccccc3)c2=O)ccc1OCc1ccc(Cl)cc1 | 81* | GIV Gai FP conf=52*;GIV Gai AS conf=31576
COc1ccc(-c2nc(-c3c4ccccc4c(Cl)c4ccccc34)[nH]c2-c2ccc(OC)cc2)cc1 | 152
CN1CCN(C(=O)c2ccc(NCc3ccccc3Cl)c(S(=O)(=O)Nc3cccc(C(F)(F)F)c3)c2)CC1 | 98
CC(C)NC(=O)c1cccc(-n2cnnc2)n1 | 99
COc1cccc(NC(=O)c2ccc3c(c2)CCN3C(C)=O)c1 | 110
COc1cccc(OC)c1C(=O)NNc1ncc(C(F)(F)F)cc1Cl | 104
CC(=O)Oc1ccc(Br)cc1C1OC(c2cc(C3CC3)nc3ccccc23)=NN1C(C)=O (stereo unspecified) | 102
CNC(=O)Cn1nc(-n2cccc2)c2c(C)cc(C)nc21 | 104
O=C(CSc1nccnc1N1CCSCC1)Nc1ccc2c(c1)OCCO2 | 106
CC1Cc2cc(S(=O)(=O)N(C)CC(=O)Nc3cccnc3)ccc2N1C(=O)C1CC1 (stereo unspecified) | 105
CCOC(=O)N1CCN(S(=O)(=O)c2cccc3nsnc23)CC1 | 107
O=C(Nc1ccc2nsnc2c1)C1CC1 | 103
CCOC(=O)N1CCN(C(=S)Nc2ccc3nsnc3c2)CC1 | 77* | GIV Gai FP conf=61*;GIV Gai AS conf=21787
Cc1cccc(N2CC(O)(c3ccccc3)[N+]3=C2SCCC3)c1 (stereo unspecified) | 97
CC(NCc1ccccc1)c1cc(Cl)ccc1O (stereo unspecified) | 99
COc1ccccc1OCC(=O)NN | 103
COc1ccccc1OCc1ccoc1C(=O)O | 82* | GIV Gai FP conf=69;GIV Gai AS conf=18278*
COc1ccccc1OCC(=O)N(C)c1ccccc1 | 108
Cc1cc(N2CCOCC2)nc(N2CCN(S(C)(=O)=O)CC2)n1 | 101
COc1ccc(-c2c3c(nc4sc(C(=O)Nc5cccc(OC)c5)c(N)c24)CC(C)(C)CC3=O)cc1 | 104
COc1ccc(C(=O)c2sc3nc(-c4ccccc4)cc(C(F)(F)F)c3c2N)cc1 | 111
COc1ccc(NC(=O)c2sc3nc(C)cc(C(F)(F)F)c3c2N)cc1 | 125
Cc1cc(C(F)(F)F)c2c(N)c(C(=O)Nc3ccc(F)cc3)sc2n1 | 61* | GIV Gai FP conf=64;GIV Gai AS conf=59274
COc1cccc(NC(=O)c2sc3nc4c(c(-c5ccc(C)o5)c3c2N)CCCC4)c1 | 115
Next part.
SMILES | GIV-Gai inh | others
COc1ccc(NC(=O)c2sc3nc4c(c(-c5ccc(OC)cc5)c3c2N)C(=O)CC(C)(C)C4)cc1 | 70* | GIV Gai FP conf=81;GIV Gai AS conf=32279
COc1ccc(NC(=O)c2sc3nc(-c4cccs4)cc(C(F)(F)F)c3c2N)cc1 | 75* | GIV Gai FP conf=68;GIV Gai AS conf=53981
CCOc1ccc(NC(=O)c2sc3nc4c(c(-c5ccccc5)c3c2N)C(=O)CC(C)(C)C4)cc1 | 100
Nc1c(C(=O)Nc2ccc(F)cc2)sc2nc3c(c(-c4ccco4)c12)CCC3 | 103
CCc1nnc(NC(=O)c2sc3nc(C)cc(C(F)(F)F)c3c2N)s1 | 121
COc1ccc(NC(=O)c2sc3nc4c(c(-c5cccs5)c3c2N)CCCC4)cc1 | 108
COc1cccc(NC(=O)c2sc3nc4c(c(-c5ccco5)c3c2N)CCC4)c1 | 85* | GIV Gai FP conf=65;GIV Gai AS conf=51091
CCN(CC)c1cc(C)nc2nc(CN3CCCC(C)C3)nn12 (stereo unspecified) | 106
COc1ccc(/C=C2\SC(=S)N(CCCC(=O)Nc3c(C)n(C)n(-c4ccccc4)c3=O)C2=O)cc1 | 103
Cc1csc(-c2csc(S(=O)(=O)N3CCC(C)CC3)c2)n1 | 100
CC1=C(C(=O)Nc2ccc(Br)cn2)C(c2ccccc2Cl)C2=C(CCCC2=O)N1 (stereo unspecified) | 104
CCc1c(C)sc(NC(=S)n2cc(C)cn2)c1C(=O)OC | 96
O=C(CSc1nnc(C2COc3ccccc3O2)n1-c1ccccc1)c1ccc(F)cc1 (stereo unspecified) | 100
COc1ccc(Br)cc1/C=C1N=C(/C=C\c2cccc([N+](=O)[O-])c2)OC/1=O | 108
O=C(Nc1cc(Cl)ccc1Cl)/C(=C/c1ccc2c(c1)OCO2)NC(=O)c1ccccc1Br | 113
N#Cc1c(C(F)(F)F)cc(-c2cccs2)nc1SCC(=O)NC1CC1 | 99
Nc1c(C(=O)Nc2ccc(S(N)(=O)=O)cc2)sc2nc(-c3ccccc3)cc(C(F)(F)F)c12 | 150
N#Cc1c(N)nc2sc(C(=O)Nc3ccc(Br)cc3)c(N)c2c1-c1cccs1 | 103
CCOc1ccc(-c2c(C#N)c(N)nc3sc(C(=O)c4ccc(C)cc4)c(N)c23)cc1 | 99
CCOc1ccc(-c2c(C#N)c(N)nc3sc(C(=O)Nc4ccc(Br)cc4)c(N)c23)cc1 | 86 | GIV Gai FP conf=64;GIV Gai AS conf=51717
Nc1c(C(=O)NC2CC2)sc2nc(-c3cccs3)cc(C(F)(F)F)c12 | 45* | GIV Gai FP conf=64;GIV Gai AS conf=53248
COC(=O)C1=C(C(=O)OC)SC(=C2C(=S)C(C)(C)N(C(=O)c3ccccc3-c3ccccc3)c3cc(C)ccc32)S1 | 110
Cc1cc(N2C(=O)c3ccccc3C2C(=O)NCCC(C)C)ccc1Br (stereo unspecified) | 105
COC(=O)Cn1cnc2onc(-c3cccc(F)c3)c2c1=O | 95
Cc1ccc(C)n1CCC(=O)O | 71* | GIV Gai FP conf=60;GIV Gai AS conf=3780*
The list continues:
SMILES | GIV-Gai inh | others
Cc1ccc(C)n1Cc1ccc(C(=O)O)cc1 | 33* | GIV Gai FP conf=48*;GIV Gai AS conf=3139*
CC1=C(C)C(=O)N(CCC(=O)O)C1=O | 95
O=C(O)c1ccc(CN2CCS(=O)(=O)CC2)cc1 | 96
O=C(O)c1ccc(CN2CCCCC2)cc1 | 101
Cc1ccn(CCC(=O)O)n1 | 103
CCN(CC)S(=O)(=O)c1ccc2c(c1)cc(C(=O)N1CCN(c3ccc(F)cc3)CC1)n2C | 106
CCOC(=O)C1=C(c2ccccc2)OC(N)=C(C#N)C1c1ccc(Cl)c(Cl)c1 (stereo unspecified) | 107
Cc1ccc2c(c1)NC(=O)c1cc(S(=O)(=O)N3CCSCC3)ccc1O2 | 109
Cc1ccc(NC(=O)CCN2CC(C)CC(C)C2)cc1 (stereo unspecified) | 101
O=C(Nc1ccc(N2CCOCC2)c2nonc12)c1cccs1 | 110
COc1ccc(NC(=S)Nc2ccc(N3CCOCC3)c3nonc23)cc1OC | 72* | GIV Gai FP conf=56*;GIV Gai AS conf=23631*
COc1ccc(C(=O)Nc2ccc(N3CCOCC3)c(C(F)(F)F)c2)cc1OC | 113
CCCNC(=O)N1CCc2cc(OC)c(OC)cc2C1c1cc2cc3c(cc2[nH]c1=O)OCO3 (stereo unspecified) | 106
Cc1nn(-c2cc(N(C)C)ncn2)c(C)c1CCC(=O)NCC1CCCO1 (stereo unspecified) | 99
NC(=O)C[n+]1cccc2ccccc21 | 80* | GIV Gai FP conf=48*;GIV Gai AS conf=5016*
NC(=O)C[n+]1ccc(/C=N/O)cc1 | 108
NC(=O)c1ccc[n+](CCO)c1 | 102
O=C(N/C(=C\c1ccc([N+](=O)[O-])cc1)C(=O)N(CCO)CCO)c1ccco1 | 106
CCC(=O)Nc1cccnc1-c1ccc(C(=O)Nc2ccc(OC)cc2OC)cc1 | 104

Structures shown so far that contain bromine:
SMILES | GIV-Gai inh | others
CC(=O)Oc1ccc(Br)cc1C1OC(c2cc(C3CC3)nc3ccccc23)=NN1C(C)=O (stereo unspecified) | 102
CC1=C(C(=O)Nc2ccc(Br)cn2)C(c2ccccc2Cl)C2=C(CCCC2=O)N1 (stereo unspecified) | 104
COc1ccc(Br)cc1/C=C1N=C(/C=C\c2cccc([N+](=O)[O-])c2)OC/1=O | 108
O=C(Nc1cc(Cl)ccc1Cl)/C(=C/c1ccc2c(c1)OCO2)NC(=O)c1ccccc1Br | 113
N#Cc1c(N)nc2sc(C(=O)Nc3ccc(Br)cc3)c(N)c2c1-c1cccs1 | 103
CCOc1ccc(-c2c(C#N)c(N)nc3sc(C(=O)Nc4ccc(Br)cc4)c(N)c23)cc1 | 86 | GIV Gai FP conf=64;GIV Gai AS conf=51717
Cc1cc(N2C(=O)c3ccccc3C2C(=O)NCCC(C)C)ccc1Br (stereo unspecified) | 105
